# PubChem BioAssay AID1508586 (ICCB-Longwood Screening Facility, Harvard Medical School, 2020)
# The entries are a selection whose mix differs from that of the whole data set. Active and inactive are the calls of the source.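 Rule for the calls: active = mean z-score across replicates of 1.96 or higher in either the MELAS or the Rieske mutant cell line; inactive = the rest.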
# Assay: MELAS cybrid and Rieske KO viability enhancers – cell-based, MELAS cybrids, Rieske KO mouse fibroblasts, CellTiter-Glo, primary screen (AID 1508586);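 note: test concentration not given here; z relative to plate mean and SD of compound and empty wells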
# Conditions: MELAS cybrid survival, low glucose, CellTiter-Glo 48 h; active compounds read high
row,Compound,z-score
1,CN(CCCl)CCCl,inactive: -0.17
